These are literature values, as cited in patent publication US8916150B2 (priority 2009, dated 2014).

In series [1] the test system is mice. The settings on record: 500 mg Zn/L of water for up to 14 months.
For series [2] the following is noted: single dose of 50 mg of zinc; human adults.

For zinc, in series [1], the toxicity in mice entry is given as “not show significant effects”. For zinc oxide, in series [2], the “nausea and vomiting after single dose” value is on record as “causes such symptoms in only a small percentage of individuals”. Consider zinc sulfate, for which the “nausea and vomiting after single dose” value in series [2] was “induces nausea and vomiting”.
